By UniProt entry, the sequences of proteins in these tests, tags left out.
UniProt P30536, whole entry: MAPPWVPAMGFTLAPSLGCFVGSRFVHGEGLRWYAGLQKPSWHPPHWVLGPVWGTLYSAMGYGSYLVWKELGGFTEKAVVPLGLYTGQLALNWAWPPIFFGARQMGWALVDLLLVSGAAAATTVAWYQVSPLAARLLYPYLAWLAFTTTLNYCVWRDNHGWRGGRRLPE

In patent publication US8685962B2 (priority 2007, dated 2014):

Assays:
[1] = biological target: T1, TSPO receptors in human tongue cancer cell line SCC-25 (Homo sapiens, UniProt P30536); assay: [3H]PK11195 saturation binding (Scatchard) in SCC-25 cells; details: read-out: Kd (equilibrium dissociation constant)
T1 construct: Cells were scraped from the culture dishes, washed with phosphate-buffered saline (PBS), and centrifuged; endogenous in cells; host or cells: SCC-25
Procedure: (§1) [^3H]PK 11195, an isoquinoline carboxamide derivative, was used for binding studies. PK 11195 is a specific TSPO receptor ligand. Cells were scraped from the culture dishes, washed with phosphate-buffered saline (PBS), and centrifuged at 1200 g for 10 minutes. Then the cell pellets were re-suspended in 1 mL of 50 mM phosphate buffer, pH 7.4, and centrifuged at 1200 g for 10 minutes. Binding assays contained 400 μL of cell membrane (0.4 mg of protein/mL) in the absence (total binding) or presence (non-specific binding) of 1 μM unlabeled PK 11195, up to a final volume of 500 μL. After incubation for 80 minutes at room temperature, samples were filtered under vacuum over Whatman GF/B filters and washed three times with phosphate buffer. Filters were placed in vials containing 4 mL of Opti-Fluor (Packard, Groningen, The Netherlands) and counted for radioactivity in a scintillation counter after 12 hours. The maximal number of binding sites (Bmax) and equilibrium dissociation constants were calculated from the saturation curve of [^3H] PK 11195 binding, using Scatchard analysis.
Scatchard analysis of [^3H]PK11195 specific binding to human tongue cancer cell lines SCC-25 and SCC-15 was performed (see, FIGS. 8A and 8C for saturation curves, and FIGS. 8B and 8D for Scatchard plots for SCC-25 and SCC-15, respectively).

[2] = biological target: T2, TSPO receptors in human tongue cancer cell line SCC-15 (Homo sapiens, UniProt P30536); assay: [3H]PK11195 saturation binding (Scatchard) in SCC-15 cells
T2 construct: endogenous in cells; host or cells: SCC-15
Procedure: as §1
Non-specific binding of [^3H]PK11195 to SCC-25 was a third of the total binding. […] Non-specific binding of [^3H]PK11195 to SCC-15 cells was a fourth (25±3.2%) of the total binding.

TSPO receptor in saliva = biological target: T3, TSPO receptor in saliva (Homo sapiens, UniProt P30536); assay: [3H]PK11195 saturation binding with Scatchard analysis in human saliva; details: n=10, read-out: Kd (equilibrium dissociation constant)
T3 construct: from tissue; host or cells: cells pelleted from human saliva samples (volunteers; smokers and non-smokers)
Procedure: For Binding analysis, saliva samples were thawed and immediately centrifuged (800 g, 10 minutes, 4° C.). The pellet, containing saliva cells, was suspended in ice-cold phosphate buffer saline (PBS), and then homogenized using a Polytron (setting 6) for 10 seconds. Total protein amount was determined.
Binding of [^3H]PK11195 to membranes of the saliva cell was conducted, as previously described (Awad and Gavish, 1987; Kelly-Hershkovitz et al., 1988; Carmel et al., 1999). The reaction mixture contained 400 μl of the homogenized samples and 25 μl of [^3H]PK 1195 (final concentration of 0.19-6 nM), in the absence (total binding) or in the presence (non-specific binding) of 10 μM unlabeled PK 11195. […] Radioactivity was counted after 12 hours with a liquid scintillation analyzer. […]
The maximal number of binding sites (Bmax) and equilibrium dissociation constants were calculated from the saturation curve of [^3H]PK11195 binding, using Scatchard analysis.
For determination of the salivary TSPO binding characteristics, binding analysis with the TSPO receptor [^3H]PK 11195 ligand was performed. […] The mean maximal binding capacity (Bmax) and equilibrium dissociation constant (Kd) values were calculated from the saturation curves with the application of Scatchard analysis to six independent experiments. […]

human salivary TSPO = biological target: T4, human salivary TSPO (Homo sapiens, UniProt P30536); assay: Competition of TSPO ligands with [3H]PK11195 binding in human saliva
T4 construct: from tissue; host or cells: cells pelleted from human saliva samples (volunteers; smokers and non-smokers)
Procedure: After 80 minutes of incubation at 4° C., the samples were filtered through Whatman CF/C filters using a vacuum system, washed three times with 4 ml of 5 mM ice-cold phosphate buffer and placed in vials containing 4 ml of Opti-Fluor. Radioactivity was counted after 12 hours with a liquid scintillation analyzer. Specific binding was obtained by subtracting non specific binding from total binding.

[3] = biological target: T5, TSPO receptors in SCC-15 cell line (Homo sapiens, UniProt P30536); assay: Displacement of [3H]PK11195 from TSPO receptors in SCC-15 cells; type: binding
T5 construct: endogenous in cells; host or cells: SCC-15
Procedure: as §1
(§2) A series of competition studies using 5 compounds were conducted in order to determine the IC50 of various compounds in displacing of [^3H]PK11195 from TSPO receptors in SCC-25 and SCC-15 cell lines. […]

[4] = biological target: T6, TSPO receptors in SCC-25 cell line (Homo sapiens, UniProt P30536); assay: Displacement of [3H]PK11195 from TSPO receptors in SCC-25 cells; type: binding
T6 construct: endogenous in cells; host or cells: SCC-25
Procedure: as §1, §2

TSPO receptor = TSPO receptor (Homo sapiens, UniProt P30536); details: background statement; cited from earlier work

CCC(C)N(C)C(=O)c1cc2ccccc2c(-c2ccccc2Cl)n1 (stereo not shown) [[^3H]PK11195]
Kd [1]: 5.75 ± 2 nM
Kd [2]: 5.95 ± 4.6 nM
Kd (TSPO receptor in saliva): 6.2 ± 1.4 nM

CCC(C)N(C)C(=O)c1cc2ccccc2c(-c2ccccc2Cl)n1 (stereo not shown) [PK 11195, 1-(2-chlorophenyl)-N-methyl-N-(1-methylpropyl)-3-isoquinoline carboxamide]
Ki (human salivary TSPO; inhibition of [3H]PK11195 binding, human saliva, four independent experiments, read-out: Ki): 6 nM
IC50 ([3]; 50% inhibition of [3H]PK11195 binding, SCC-15, read-out: IC50): 6 ± 5 nM
IC50 ([4]; 50% inhibition of [3H]PK11195 binding, SCC-25, read-out: IC50): 9 ± 3 nM
Kd (TSPO receptor): < 20 nM

O=C1CN=C(c2ccccc2Cl)c2cc([N+](=O)[O-])ccc2N1 [Clonazepam]
Ki (human salivary TSPO): > 10000 nM
IC50 [3]: > 100000 nM
IC50 [4]: > 100000 nM

Read-outs that look alike come from different tables or passages of the source.
